From patent publication US6384051B1, “Method of treating or inhibiting colonic polyps” (American Cyanamid Company, priority 2000, dated 2002)

Assays:
min mouse = experiment: in vivo standard pharmacological test procedure emulating familial adenomatous polyps (FAP): min mouse, compound blended in chow for 60 days, polyp number at day 61
Procedure: The compound of Example 399 was evaluated in this procedure, which emulates familial adenomatous polyps (FAP) in humans, as a representative compound of this invention. The min mouse used in this test procedure, currently the best available model for FAP, is a strain that has lost both copies of the APC gene. These animals develop multiple intestinal polyps (adenomas). The polyps that develop in min mice express EGFR and have activated COX-2. […] The following briefly describes the procedure used and the results obtained in this standard pharmacological test procedure.
The compound of Example 399 was blended with a standard murine chow and animals were given ad libitum access to the food for 60 days. Based on estimated food consumption, the compound of Example 399 was added at concentration commensurate with animals ingesting either 5 mg/kg/day or 150 mg/kg/day. At day 61, 10-15 animals in each treatment group+10-15 control (chow alone) animals corresponding to each treatment group were sacrificed and assessed for polyp number. The following table summarizes the results.

[1] = tested on: Min mouse (C57BL/6J-Min/+); experiment: in vivo test procedure emulating FAP: Min mouse (C57BL/6J-Min/+), compound blended with AIN-93G chow for 60 days, intestinal polyps counted on day 61
From the text: The procedure described below emulates familial adenomatous polyps (FAP) in humans using the Min mouse (C57BL/6J-Min/+), which is a strain of mice that has a mutation in the APC (Adenomatous Polyposis Coli) Gene. These animals develop multiple intestinal polyps (adenomas) when raised on a high fat diet that ultimately lead to death by 120 days of age due to anemia and or intestinal blockage. The polyps that develop in Min mice express EGFR and have activated COX-2. The following briefly describes the procedure used and the results obtained in this standard pharmacological test procedure.
Test animals were divided into two treatment groups: Group I, control and Group II, (4-dimethylamino-but-2-enoic acid [4-(3-chloro-4-fluoro-phenylamino)-3-cyano-7-ethoxy-quinolin-6-yl]-amide. The test compound administered to Group II was blended with AIN-93G murine chow (Bioserve, Frenchtown, N.J.) and animals were given ad libitum access to the food, in quantities corresponding to the approximate daily dose of 20 mg/kg (4-dimethylamino-but-2-enoic acid [4-(3-chloro-4-fluoro-phenylamino)-3-cyano-7-ethoxy-quinolin-6-yl]-amide. The animals were treated for 60 days. The food was weighed once per week to determine consumption, and the animals also weighed weekly. […] The intestinal tracts were then opened and the number of polyps counted. […]

CCOc1cc2ncc(C#N)c(Nc3ccc(F)c(Cl)c3)c2cc1NC(=O)C=CCN(C)C [Example 399, 4-Dimethylamino-but-2-enoic acid [4-(3-chloro-4-fluoro-phenylamino)-3-cyano-7-ethoxy-quinolin-6-yl]-amide]
Mean # Polyps ± S.D. (min mouse; Group I, 5 mg/kg/day in chow ad libitum, control 32.6 ± 19.1): 15.6 ± 6.0
Mean # Polyps ± S.D. (min mouse; Group II, 150 mg/kg/day in chow ad libitum, control 19.5 ± 14.1): 2.6 ± 1.6
reduced polyp numbers when compared to the AIN-93G control diet alone ([1]; approximate daily dose of 20 mg/kg): 87%
Number of Polyps ([1]; approximate daily dose of 20 mg/kg in AIN-93G chow, control (Group I) 19.5 ± 14.1): 2.6 ± 1.6
